Assay results taken from PMC4209162, “Specific aromatic foldamers potently inhibit spontaneous and seeded Aβ42 and Aβ43 fibril assembly” (Biochemical Journal, 2014).

Protein sequences, listed by entry. Tags and fused reporters are not part of them. Lines headed by an entry give the natural chain unless they say otherwise; changes in a name come on top.
UniProt P05453: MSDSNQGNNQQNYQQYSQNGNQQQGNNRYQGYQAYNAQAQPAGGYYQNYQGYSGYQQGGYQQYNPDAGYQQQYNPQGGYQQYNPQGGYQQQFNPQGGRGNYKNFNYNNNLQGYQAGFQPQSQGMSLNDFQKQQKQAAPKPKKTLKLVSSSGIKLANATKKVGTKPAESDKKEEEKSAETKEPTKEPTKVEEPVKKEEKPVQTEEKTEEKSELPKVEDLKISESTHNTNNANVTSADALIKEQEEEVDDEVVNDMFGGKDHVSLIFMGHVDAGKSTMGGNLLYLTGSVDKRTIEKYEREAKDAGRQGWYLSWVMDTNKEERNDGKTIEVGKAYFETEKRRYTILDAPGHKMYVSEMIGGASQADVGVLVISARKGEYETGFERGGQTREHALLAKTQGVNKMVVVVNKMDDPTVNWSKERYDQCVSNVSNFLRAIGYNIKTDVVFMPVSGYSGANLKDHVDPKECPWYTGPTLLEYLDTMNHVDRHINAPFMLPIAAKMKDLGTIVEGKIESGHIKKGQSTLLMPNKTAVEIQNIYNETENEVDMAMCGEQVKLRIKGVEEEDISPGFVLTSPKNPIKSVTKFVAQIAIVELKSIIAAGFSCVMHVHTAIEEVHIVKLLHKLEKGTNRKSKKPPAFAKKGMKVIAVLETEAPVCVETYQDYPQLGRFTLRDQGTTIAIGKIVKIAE

Target: prion domain, NM, of yeast Sup35 (Saccharomyces cerevisiae, UniProt P05453)
Test: Spontaneous NM fibrillization (ThT fluorescence)
Conditions: NM 5 μM, foldamer 20 μM, 4 h; for Inhibition of NM fibrillization: 25°C, ThT

Substance	Inhibition of NM fibrillization	ThT fluorescence of NM fibrils formed in presence of foldamer (compared with NM alone)
Ac-Sal-(Lys-Sal)3-CONH2	did not inhibit NM fibrillization	–
Sal-(Lys-Sal)3-CONH2	did not inhibit NM fibrillization	–
(Arg-Benz)4-CONH2	did not inhibit NM fibrillization	greater ThT fluorescence
